Ab-14 heavy chain CDR variants: yeast mating affinities

The target is the same throughout: PDVDLGDISGINAS, from the HR2 region of SARS-CoV-2 spike.

The variants keep the light chain, the linker and the frameworks of Ab-14 (scFv order VH, a 15-residue (Gly4Ser)3 linker, VL).
VH: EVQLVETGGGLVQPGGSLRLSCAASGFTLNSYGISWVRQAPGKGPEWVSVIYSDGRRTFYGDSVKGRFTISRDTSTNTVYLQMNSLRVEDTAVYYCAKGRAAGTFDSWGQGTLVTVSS
VL: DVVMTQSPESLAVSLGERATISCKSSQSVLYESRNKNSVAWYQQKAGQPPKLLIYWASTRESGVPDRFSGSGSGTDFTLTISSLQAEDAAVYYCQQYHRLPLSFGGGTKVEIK

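The parent was found by panning a naive human phage display library on the peptide. These sequences belong to a second round, designed from the earlier measurements on random variants of the parent. Their group label is 14H_GP_HC (GP: Gaussian process model; HC: hill climbing; a sequence that several methods proposed may carry one label only). AlphaSeq pools MATa yeast showing the antibodies with MATalpha yeast showing the peptide. Binding brings cells together so that they mate, and sequencing counts the barcode pairs among the diploids. Scores were corrected for input abundance and mapped to Kd with protein pairs of known affinity run in the same pool. There are six technical replicates.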

The parent's heavy chain CDRs are GFTLNSYGIS, VIYSDGRRTFYGDSVK, GRAAGTFDS; each variant's own CDRs replace them letter for letter.
Scale: log10 of Kd in nM, estimated from mating counts; low values are strong binders.
A mean of the replicates is given; it leaves out those without a signal.
"n.d." marks a missing value. The strain was present, yet no cells mated with the target were sequenced in that replicate, which points to weak or no binding.
Nonspecific signal, from three strains lacking the peptide, appeared in 1% of pairings of all heavy chain designs, centred on 2.08 (5% of these signals below 0.84); values are not corrected for it. For each scFv, signals with the empty controls are counted beside the result, with their mean in brackets.
The authors' rule: three or more of the six replicates give a measured affinity, fewer mean a poor binder.
The range of this assay differs from that of the first round, and the authors advise against merging the two.

CDR-H1	CDR-H2	CDR-H3	log10 Kd, replicates	log10 Kd (nM), mean	control signals
GFTLNDYGIS	VIYSDGRRTFYGDAVK	GRAAGTFDI	n.d. / n.d. / n.d. / n.d. / n.d. / n.d.	n.d.	0/18
GFTLNSYGIS	VIYADGRRTFYGDSVK	GMAAGTFKM	n.d. / n.d. / n.d. / n.d. / n.d. / n.d.	n.d.	1/18 (1.08)
GFTLNEYGIS	VIYSDGRRTFYGDDVK	GRAAVTFDT	n.d. / n.d. / n.d. / n.d. / n.d. / n.d.	n.d.	0/18
GFDLNEYGIS	VIYSDGRRTFYDDSVK	GQEAGTFDS	0.31 / -0.04 / -0.29 / -0.18 / 0.12 / 0.33	0.04	0/18
GKSLNEYGIS	VIYSDGRRTFYGDSVK	GRAAVTFDQ	n.d. / n.d. / n.d. / n.d. / n.d. / n.d.	n.d.	0/18
GFTLNSYGIS	VIYSDGRRTFYDWSVK	GQVAGTFDS	n.d. / n.d. / n.d. / n.d. / n.d. / n.d.	n.d.	0/18
GFQLNEYGIS	VIYSDGRRTFYGDSVK	GRAAGTFWS	n.d. / n.d. / n.d. / n.d. / n.d. / n.d.	n.d.	0/18
GFTLNEYGIS	VIYSDGRRTFYGDSVK	GRAAGTFTM	n.d. / n.d. / n.d. / n.d. / n.d. / n.d.	n.d.	0/18
GYTLNEYGIS	VIYSDGRRTFYTDSVK	GRTAGTFDS	0.91 / 0.61 / 0.90 / 2.00 / 1.09 / 1.27	1.13	0/18
GFALNSYGIS	VIYSDGRRTFYHDSVK	GQLAGTFDS	0.40 / 0.00 / 0.37 / 0.01 / 0.97 / 0.64	0.40	0/18
GFTLDSYGIS	VIYSDGRRTFYGDSVK	GKAAGTFDM	1.20 / 0.77 / 0.51 / 0.27 / 0.55 / 0.63	0.65	0/18
GFQLNDYGIS	VIYSDGRRTFYGDSVK	GRTAGTFIS	n.d. / n.d. / n.d. / n.d. / n.d. / n.d.	n.d.	0/18
LFTLNEYGIS	VIYSDGRRTFYGDSVK	GRAAVTFDQ	n.d. / n.d. / n.d. / n.d. / n.d. / n.d.	n.d.	0/18
RFTLESYGIS	VIYADGRRTFYGDSVK	GRAAGTFKS	n.d. / n.d. / n.d. / n.d. / n.d. / n.d.	n.d.	0/18
GFTLNSYGIS	VIYSDGRRTFYTDSVK	GMTAGTFDS	1.07 / 0.37 / 0.15 / 0.57 / 0.15 / 0.62	0.49	1/18 (2.44)
GFHLNSYGIS	VIYSDGRRTFYDDSVK	GQEAGTFDS	n.d. / -0.03 / 1.20 / 0.72 / 0.23 / 0.77	0.58	0/18
GFTLNSYGIS	VIYADGRRTFYGDSVK	GRAAGTFAS	0.50 / 0.07 / 0.25 / -0.06 / -0.05 / -0.08	0.10	0/18
GFTLNSYGIS	VIYSDGRRTFYDDSVK	GAQAGTFDS	1.19 / 2.26 / n.d. / 1.00 / 1.11 / 1.53	1.42	2/18 (2.03)
GFALNEYGIS	VIYSDGRRTFYVDDVK	GRTAGTFDS	0.94 / 1.31 / 0.57 / 1.53 / 0.77 / 1.79	1.15	0/18
GTTLNSYGIS	VIYADGRRTFYGDSVK	GRAAGTFKS	n.d. / n.d. / n.d. / n.d. / n.d. / n.d.	n.d.	0/18
GFNLNSYGIS	VIYSDGRRTFYDDSVK	GKLAGTFDS	1.19 / 0.42 / 0.32 / 0.07 / 0.49 / 0.25	0.46	0/18
GFTLNEFGIS	VIYSDGRRTFYTDSVK	GRTAGTFDS	0.64 / -0.50 / 0.35 / -0.28 / -0.64 / 0.64	0.03	0/18
GFTLNEYGIS	VIYSDGRRTFYGDEVK	GRAAVTFDQ	1.35 / 1.64 / n.d. / 2.00 / n.d. / n.d.	1.66	0/18
GFDLNEYGIS	VIYSDGRRTFYADSVK	GRDAGTFDS	n.d. / n.d. / n.d. / n.d. / n.d. / n.d.	n.d.	0/18
GFTLNDYGIS	VIYSDGRRTFYMDSVK	GRVAGTFWS	n.d. / n.d. / n.d. / n.d. / n.d. / n.d.	n.d.	0/18
GFTLNDYGIS	VIYSDGRRTMYADSVK	GRAAGTFDS	n.d. / 0.69 / 0.45 / 0.51 / -0.08 / -0.48	0.22	0/18
GFTLNSYGIS	VIYSDGERTFYIDSVK	GRAAGTFDS	1.15 / n.d. / 2.37 / n.d. / 1.22 / 1.48	1.55	1/18 (1.95)
GFTLNSYGIS	VIYSDGRRTFYGDSVK	GRTAGTFTV	n.d. / n.d. / n.d. / n.d. / n.d. / n.d.	n.d.	0/18
GFTLNEYGIS	VIYSDGRRTFYGDSVK	GRTAGTFCV	n.d. / n.d. / n.d. / n.d. / n.d. / n.d.	n.d.	0/18
GFHLNDYGIS	VIYSDGRRTWYIDSVK	GRAAGTFDS	n.d. / n.d. / n.d. / n.d. / 0.90 / 1.70	1.30	0/18
GFGLNEYGIS	VIYSDGRRTFYHDSVK	GRAAGTFDQ	-0.05 / 0.25 / 0.18 / 0.39 / 0.60 / 0.65	0.34	0/18
GFTLNSYGIS	VIYADGRRTFYGDSVK	GRVAGTFCI	-0.42 / n.d. / -0.87 / n.d. / -0.55 / -0.35	-0.55	0/18
GFSLNEYGIS	VIYSDGRRTFYGDSVK	GRFAGTFDD	-0.19 / -0.07 / -0.13 / -0.46 / -0.61 / -0.01	-0.24	0/18
GFDLNEYGIS	VIYSDGRRTFYTDSVK	GRSAGTFDS	0.86 / 1.11 / 1.13 / 0.57 / 1.47 / 0.72	0.98	1/18 (3.25)
GFGLNEYGIS	VIYSDGRRTFYSDAVK	GRTAGTFDS	-0.45 / -0.31 / -0.61 / -0.56 / -0.29 / -0.46	-0.45	1/18 (3.09)
GFTLNEYGIS	VIYSDGRRTFYGDSVK	GRAAGTFWL	n.d. / n.d. / n.d. / n.d. / n.d. / n.d.	n.d.	0/18
GFSLNEYGIS	VIYSDGRRTFYCDSVK	GPAAGTFDL	n.d. / n.d. / n.d. / n.d. / n.d. / n.d.	n.d.	0/18
GFCLNDYGIS	VIYSDGRRTFYGDSVK	GTAAGTFDS	2.39 / 1.07 / 1.83 / 1.95 / 1.78 / 3.42	2.07	1/18 (1.50)
GMTLNEYGIS	VIYSDGRRTFYGDSVK	GRTAGTFDS	0.48 / 0.31 / 0.32 / 0.46 / 0.07 / 0.73	0.39	1/18 (3.83)
GFELNDYGIS	VIYADGRRTFYGDSVK	GTAAGTFDS	-0.04 / -0.38 / -0.19 / -0.57 / -0.45 / -0.32	-0.32	0/18
GFTLNDYGIS	VIYSDGRRTWYQDSVK	GRAAGTFDS	1.15 / 0.41 / 0.50 / 1.52 / 1.00 / 1.16	0.96	0/18
GFQLNDYGIS	VIYSDGRRTEYGDSVK	GRAAGTFDS	n.d. / 1.06 / 1.64 / 2.26 / 1.59 / 1.34	1.58	1/18 (1.61)
GFRLNEYGIS	VIYSDGRRTFYGDSVK	GRAAGTFDT	0.57 / 0.27 / 0.31 / 0.20 / 0.80 / 0.79	0.49	1/18 (1.46)
GFTLNNYGIS	VIYSDGRRTFYHDSVK	GQLAGTFDS	0.33 / 0.03 / 0.96 / 0.34 / -0.04 / 0.33	0.33	0/18
GFSLNEYGIS	VIYADGRRTFYGDSVK	GWAAGTFDS	-0.44 / 0.27 / -0.09 / 0.51 / -0.64 / 0.70	0.05	0/18

A selection of 5 entries from above:

CDR-H1	CDR-H2	CDR-H3	log10 Kd, replicates	log10 Kd (nM), mean	control signals
GFQLNDYGIS	VIYSDGRRTFYGDSVK	GRTAGTFIS	n.d. / n.d. / n.d. / n.d. / n.d. / n.d.	n.d.	0/18
GMTLNEYGIS	VIYSDGRRTFYGDSVK	GRTAGTFDS	0.48 / 0.31 / 0.32 / 0.46 / 0.07 / 0.73	0.39	1/18 (3.83)
GFTLNEYGIS	VIYSDGRRTFYGDDVK	GRAAVTFDT	n.d. / n.d. / n.d. / n.d. / n.d. / n.d.	n.d.	0/18
GKSLNEYGIS	VIYSDGRRTFYGDSVK	GRAAVTFDQ	n.d. / n.d. / n.d. / n.d. / n.d. / n.d.	n.d.	0/18
GFELNDYGIS	VIYADGRRTFYGDSVK	GTAAGTFDS	-0.04 / -0.38 / -0.19 / -0.57 / -0.45 / -0.32	-0.32	0/18

The measurements come from Li et al. 2023 (doi:10.1038/s41467-023-39022-2) through the FLAb antibody collection.